The test system of this data set is BGM cell line. Particulars: 24 h, MTT, mean of 3-5 experiments.

For `[Se]` [Selenium], the “MDL50 (minimum lethal dose for 50% of cells), mean ± SD” value was at least 1000 µg/mL.

For the origin of these results see paper PMC6282106, “Commercial drugs containing flavonoids are active in mice with malaria and in vitro against chloroquine-resistant Plasmodium falciparum” (Memórias do Instituto Oswaldo Cruz, 2018).
